The values below come from patent US20240285730A1, “COMPOSITIONS AND METHODS FOR THE TREATMENT OF GRAFT VERSUS HOST DISEASE” (VectivBio AG, priority 2021, published 2024).

The subject of this assay is cytarabine-induced toxicity. Put plainly: Apraglutide dose-response study with cytarabine chemotherapy. In kind it is in vivo, BALB/cJ female mice. The method, then: The apraglutide dose-dependent impact on the immunosuppressive effect of cytarabine was evaluated. The effect of cytarabine treatment on polymorphonuclear (PMN) cell count was determined (FIG. 20). […] In a separate study during which animals treated with cytarabine alone or in combination with apraglutide initiated before cytarabine (Days-4 to +12) were allowed to survive for 4 additional weeks.

Turning to “hGLP-2: unmodified hGLP-2, comparator given twice daily at a nominal dose of 0.60 mg/kg with cytarabine (HADGSFSDEMNTILDNLAARDFINWLIQTKITD; Glucagon-like peptide 2; UniProt P01275 146-178, looked up) [reference compound]”, the “polymorphonuclear (PMN) cell count” value (cytarabine alone or combined with hGLP-2 or apraglutide) is “not reversed”. For the same substance, the initial weight loss entry (cytarabine combined with 0.11 mg/kg apraglutide or hGLP-2 (0.60 mg/kg twice daily)) is “did not decrease initial weight loss”.
